These results are taken from ChEMBL document CHEMBL3817772, “Design, Synthesis, and Biological Evaluations of Hydroxypyridonecarboxylic Acids as Inhibitors of HIV Reverse Transcriptase Associated RNase H” (J Med Chem, 2016).

Assay [1] can be described thus: Inhibition of HIV-1 RT-RNase H activity expressed in Escherichia coli JM109 using DNA 3'-end directed cleavage measuring HTS-2 as substrate by fluorescence-based assay. On the set-up: species or system Human immunodeficiency virus 1. In a few lines:
(§1)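 RT RNase H cleavage of fluorescein/Dabcyl-labelled RNA/DNA duplexes, with substrate in excess over RT. HTS-1 probes internal cleavage, HTS-2 DNA 3'-end-directed cleavage, and HTS-3 (fluorescein RNA annealed to Dabcyl DNA) RNA 5'-end-directed cleavage.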

Assay [2] is described as follows: Inhibition of HIV-1 RT-RNase H activity expressed in Escherichia coli JM109 using RNA 5'-end directed cleavage measuring HTS-3 as substrate by fluorescence-based assay. On the set-up: species or system Human immunodeficiency virus 1. In a few lines: as §1
A short description of assay [3]: Inhibition of HIV-1 RT-RNase H domain fragment expressed in Escherichia coli by fluorescence-based assay. Also on record: species or system Human immunodeficiency virus 1.
Assay [4] deals with Human immunodeficiency virus type 1 reverse transcriptase (Human immunodeficiency virus 1, UniProt Q72547). Nature of the assay: Inhibition of HIV-1 RT RNA-dependent DNA polymerase activity expressed in Escherichia coli JM109 using [3H]TTP/ poly(rA)-oligo(dT)16 as substrate incubated for 20 mins by liquid scintillation spectrometric analysis. Put shortly:
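RNA-dependent DNA polymerase reaction in 50 mM Tris-HCl pH 7.4 (37°C), 60 mM KCl, 5 mM MgCl2, with 10 µM [3H]-TTP and 40 nM poly(rA)-oligo(dT)16. Started with 10 nM RT, 20 min at 37°C. Quenched in ice-cold 10% TCA plus 20 mM sodium pyrophosphate, glass-fiber filtered, washed with TCA and ethanol. Incorporation counted by liquid scintillation.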

The nature of assay [5]: Inhibition of HIV-1 RT-RNase H activity expressed in Escherichia coli JM109 using internal cleavage measuring HTS-1 as substrate by fluorescence-based assay. On the set-up: species or system Human immunodeficiency virus 1. Put shortly: as §1

In general, IC50 refers to the concentration needed to halve the response being measured. High values mean weaker potency in that assay, low ones greater potency in that assay. Take `O=C(O)c1cn(Cc2ccc(-c3cnc4ccccc4c3)cc2)cc(O)c1=O`: the IC50 in assay [1] is 1.2 µM; in assay [2], 0.9 µM; in assay [3], 1 µM; in assay [4] it was 1.1 µM.

Regarding `O=C(O)c1cn(Cc2cccc(C(F)(F)F)c2)cc(O)c1=O`, the IC50 in assay [5] is 18 µM; in assay [3] it was 11 µM.

With `O=C(O)c1cn(Cc2ccc(Cl)cc2)cc(O)c1=O`, the IC50 was found to be 17 µM in assay [5] and 7.8 µM in assay [3].

For `O=C(O)c1cn(Cc2cccc3ccccc23)cc(O)c1=O`, the IC50 in assay [5] amounted to 2.7 µM; in assay [1] it was 4.3 µM; in assay [2], 5.4 µM; in assay [3], 1.9 µM; in assay [4] it was 8.5 µM.

For the molecule `O=C(O)c1cn(Cc2ccc(-c3cccnc3)cc2)cc(O)c1=O`, the IC50 worked out at 3.6 µM in assay [5], 10 µM in assay [1], 15 µM in assay [2] and 2.6 µM in assay [3].

For `COc1ccc(Cn2cc(O)c(=O)c(C(=O)O)c2)cc1`, the IC50 was 2.5 µM in assay [5], 15 µM in assay [1], 20 µM in assay [2] and 4.8 µM in assay [3].
